The target of one assay is T1, PARP10 (Homo sapiens, UniProt Q53GL7).
T1 sequence (Q53GL7 1-1025): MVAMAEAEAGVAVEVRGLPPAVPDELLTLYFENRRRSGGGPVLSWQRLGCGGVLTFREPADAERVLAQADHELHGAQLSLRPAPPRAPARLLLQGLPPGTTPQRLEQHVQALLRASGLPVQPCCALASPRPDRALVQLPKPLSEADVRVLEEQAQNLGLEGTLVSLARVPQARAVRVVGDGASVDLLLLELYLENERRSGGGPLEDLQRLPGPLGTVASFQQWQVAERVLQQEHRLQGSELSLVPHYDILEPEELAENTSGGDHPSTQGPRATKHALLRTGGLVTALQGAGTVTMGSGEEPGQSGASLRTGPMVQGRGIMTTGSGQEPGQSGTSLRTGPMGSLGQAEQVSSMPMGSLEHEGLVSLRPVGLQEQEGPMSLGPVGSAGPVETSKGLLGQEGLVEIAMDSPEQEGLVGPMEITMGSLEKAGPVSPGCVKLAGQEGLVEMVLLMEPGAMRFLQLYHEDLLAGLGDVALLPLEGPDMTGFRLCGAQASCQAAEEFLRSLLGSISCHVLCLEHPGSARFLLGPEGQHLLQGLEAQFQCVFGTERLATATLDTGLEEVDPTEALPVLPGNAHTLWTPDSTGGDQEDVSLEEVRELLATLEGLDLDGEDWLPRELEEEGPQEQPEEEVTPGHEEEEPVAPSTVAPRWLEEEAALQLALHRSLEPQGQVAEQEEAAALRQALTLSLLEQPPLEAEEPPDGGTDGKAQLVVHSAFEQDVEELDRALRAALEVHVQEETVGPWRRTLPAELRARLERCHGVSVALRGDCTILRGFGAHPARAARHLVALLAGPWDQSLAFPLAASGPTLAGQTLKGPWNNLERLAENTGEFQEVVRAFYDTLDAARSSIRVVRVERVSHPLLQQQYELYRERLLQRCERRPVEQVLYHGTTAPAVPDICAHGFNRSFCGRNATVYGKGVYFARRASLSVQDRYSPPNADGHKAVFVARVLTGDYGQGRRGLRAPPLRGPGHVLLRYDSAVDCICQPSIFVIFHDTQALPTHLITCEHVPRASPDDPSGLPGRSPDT
Kind of assay: biochemical. Type of assay: biochemical. Further details: made in house.

The target of another assay is T2, PARP15 (Homo sapiens, UniProt Q460N3).
T2 sequence (Q460N3 1-678): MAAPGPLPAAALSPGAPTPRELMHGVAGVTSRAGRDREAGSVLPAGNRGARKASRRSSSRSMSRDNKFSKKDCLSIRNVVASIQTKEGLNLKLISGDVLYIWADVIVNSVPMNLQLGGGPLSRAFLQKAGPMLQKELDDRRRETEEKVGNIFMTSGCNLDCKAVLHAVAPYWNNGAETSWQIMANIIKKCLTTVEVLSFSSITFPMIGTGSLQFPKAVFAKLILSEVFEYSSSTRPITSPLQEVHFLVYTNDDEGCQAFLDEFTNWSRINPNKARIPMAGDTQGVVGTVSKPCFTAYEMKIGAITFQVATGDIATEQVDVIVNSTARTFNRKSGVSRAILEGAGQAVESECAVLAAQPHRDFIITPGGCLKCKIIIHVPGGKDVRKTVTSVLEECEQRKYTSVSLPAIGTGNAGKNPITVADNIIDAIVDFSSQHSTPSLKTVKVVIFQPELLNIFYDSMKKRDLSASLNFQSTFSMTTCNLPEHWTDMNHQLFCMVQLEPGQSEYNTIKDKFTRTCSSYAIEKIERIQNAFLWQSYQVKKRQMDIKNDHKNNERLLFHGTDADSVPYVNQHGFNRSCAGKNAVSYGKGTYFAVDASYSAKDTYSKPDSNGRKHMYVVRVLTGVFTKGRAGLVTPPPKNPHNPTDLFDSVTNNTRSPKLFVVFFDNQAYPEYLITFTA
Kind of assay: biochemical. The format is biochemical. Further details: made in house.

[1] abbreviates: standard assay (Tables 1-3), * value limited by the protein concentration used, > less than 50% inhibition, ≫ no inhibition at the concentration.
[2] abbreviates: standard assay (Tables 1-3), * value limited by the protein concentration used, > less than 50% inhibition, ≫ no inhibition at the concentration, read-out: PARP15 IC50.

Read-outs that look alike come from different tables or passages of the source. Some results are limits rather than exact numbers.

The results in this text go back to publication PMC9884089 (Journal of Medicinal Chemistry, 2023).

Broadly, the IC50 is the concentration at which inhibition is half-maximal.

Consider `Clc1ccc2c(c1)sc1nncn12` [Compound 7], for which, at PARP10 (setting [1]), the IC50 was above 10 µM. As for `Oc1cccc2c1sc1nncn12` [Compound 17, [1,2,4]Triazolo[3,4-b][1,3]benzothiazol-8-ol], on PARP10 (setting [1]), the IC50 was above 10 µM. As to `CSc1nnc2sc3cc(C)ccc3n12` [Compound 22, 7-Methyl-3-(methylthio)[1,2,4]triazolo[3,4-b][1,3]benzothiazole], the half-maximal inhibitory concentration (IC50) on PARP15 (setting [2]) was above 10 µM.

For `Cc1ccc2c(c1)sc1nnc(SCc3ccc(Cl)cc3)n12` [Compound 23, 3-[(4-Chlorobenzyl)thio]-7-methyl[1,2,4]triazolo[3,4-b][1,3]benzothiazole], the IC50 against PARP10 (setting [1]) and on PARP15 (setting [2]) was above 10 µM each time.

`Cc1ccc2c(c1)sc1nnc(/N=C\c3ccc(Cl)cc3)n12` [Compound 24, N-[(1Z)-(4-Chlorophenyl)methylene]-7-methyl[1,2,4]triazolo[3,4-b][1,3]benzothiazol-3-amine]: the IC50 on PARP10 was above 10 µM; on PARP15, 7.9 µM.

For `Cc1ccc2c(c1)sc1nnc(NCc3ccc(Cl)cc3)n12` [Compound 25, N-(4-Chlorobenzyl)-7-methyl[1,2,4]triazolo[3,4-b][1,3]benzothiazol-3-amine], the concentration for half-maximal inhibition (IC50) on PARP15 (setting [2]) is above 10 µM.
